Measured values taken from publication PMC12155096 (International Journal of Molecular Sciences, 2025).

Protein sequences, listed by entry. Tags and fused reporters are not part of them.
UniProt P10635, whole entry: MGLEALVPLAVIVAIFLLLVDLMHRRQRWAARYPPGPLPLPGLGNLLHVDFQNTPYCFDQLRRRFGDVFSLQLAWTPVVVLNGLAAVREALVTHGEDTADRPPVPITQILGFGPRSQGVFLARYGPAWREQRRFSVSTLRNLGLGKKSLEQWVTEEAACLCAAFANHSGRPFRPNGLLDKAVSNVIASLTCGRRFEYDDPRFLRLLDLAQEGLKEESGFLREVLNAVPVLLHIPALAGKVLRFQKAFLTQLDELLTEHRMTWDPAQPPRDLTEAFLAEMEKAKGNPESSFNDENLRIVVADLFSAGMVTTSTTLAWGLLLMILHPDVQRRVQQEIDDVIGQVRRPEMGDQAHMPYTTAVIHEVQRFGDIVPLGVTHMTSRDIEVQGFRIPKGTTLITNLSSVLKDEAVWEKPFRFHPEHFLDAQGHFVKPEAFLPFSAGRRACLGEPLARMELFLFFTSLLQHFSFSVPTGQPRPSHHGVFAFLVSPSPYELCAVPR
UniProt P33261, whole entry: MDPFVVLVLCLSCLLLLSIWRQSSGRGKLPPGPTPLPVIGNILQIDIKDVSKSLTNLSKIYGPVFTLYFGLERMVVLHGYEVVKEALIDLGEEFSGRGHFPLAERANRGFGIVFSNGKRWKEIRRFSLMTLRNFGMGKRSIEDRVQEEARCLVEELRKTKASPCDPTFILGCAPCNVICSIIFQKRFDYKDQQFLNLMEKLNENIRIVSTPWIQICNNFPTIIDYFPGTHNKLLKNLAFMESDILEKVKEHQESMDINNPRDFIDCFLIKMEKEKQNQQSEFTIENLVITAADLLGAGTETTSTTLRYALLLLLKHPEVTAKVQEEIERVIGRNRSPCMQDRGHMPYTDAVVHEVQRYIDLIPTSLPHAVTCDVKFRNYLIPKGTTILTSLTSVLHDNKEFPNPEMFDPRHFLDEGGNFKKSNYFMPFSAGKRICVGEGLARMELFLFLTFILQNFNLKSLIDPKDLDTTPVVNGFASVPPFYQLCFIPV
UniProt P11712, whole entry: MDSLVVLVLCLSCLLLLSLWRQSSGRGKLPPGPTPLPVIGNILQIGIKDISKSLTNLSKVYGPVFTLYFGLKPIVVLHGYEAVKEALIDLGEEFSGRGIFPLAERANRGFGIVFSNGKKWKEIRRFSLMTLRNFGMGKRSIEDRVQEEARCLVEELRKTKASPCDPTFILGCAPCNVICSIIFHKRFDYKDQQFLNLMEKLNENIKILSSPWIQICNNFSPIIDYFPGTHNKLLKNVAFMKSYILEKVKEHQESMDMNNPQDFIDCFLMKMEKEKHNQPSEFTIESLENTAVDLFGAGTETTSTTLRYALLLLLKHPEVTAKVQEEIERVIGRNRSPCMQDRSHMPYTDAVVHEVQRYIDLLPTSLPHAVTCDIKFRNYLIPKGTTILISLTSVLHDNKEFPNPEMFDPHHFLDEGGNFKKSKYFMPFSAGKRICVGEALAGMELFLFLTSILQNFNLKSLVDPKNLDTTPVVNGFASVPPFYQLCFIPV
UniProt P05177, whole entry: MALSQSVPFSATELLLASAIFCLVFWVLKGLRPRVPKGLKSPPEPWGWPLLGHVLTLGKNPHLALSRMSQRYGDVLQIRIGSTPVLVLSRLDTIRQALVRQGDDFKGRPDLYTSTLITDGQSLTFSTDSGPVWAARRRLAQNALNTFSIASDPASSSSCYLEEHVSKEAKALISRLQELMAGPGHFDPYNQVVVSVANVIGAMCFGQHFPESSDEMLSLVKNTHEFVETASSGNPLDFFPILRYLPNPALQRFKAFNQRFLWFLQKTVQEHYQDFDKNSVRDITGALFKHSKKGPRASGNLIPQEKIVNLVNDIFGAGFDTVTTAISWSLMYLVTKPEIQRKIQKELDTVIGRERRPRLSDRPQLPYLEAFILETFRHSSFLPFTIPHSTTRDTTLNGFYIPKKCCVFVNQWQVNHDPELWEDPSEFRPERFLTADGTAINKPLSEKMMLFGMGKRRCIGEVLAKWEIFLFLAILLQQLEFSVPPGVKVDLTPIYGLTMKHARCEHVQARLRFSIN
UniProt P08684, whole entry: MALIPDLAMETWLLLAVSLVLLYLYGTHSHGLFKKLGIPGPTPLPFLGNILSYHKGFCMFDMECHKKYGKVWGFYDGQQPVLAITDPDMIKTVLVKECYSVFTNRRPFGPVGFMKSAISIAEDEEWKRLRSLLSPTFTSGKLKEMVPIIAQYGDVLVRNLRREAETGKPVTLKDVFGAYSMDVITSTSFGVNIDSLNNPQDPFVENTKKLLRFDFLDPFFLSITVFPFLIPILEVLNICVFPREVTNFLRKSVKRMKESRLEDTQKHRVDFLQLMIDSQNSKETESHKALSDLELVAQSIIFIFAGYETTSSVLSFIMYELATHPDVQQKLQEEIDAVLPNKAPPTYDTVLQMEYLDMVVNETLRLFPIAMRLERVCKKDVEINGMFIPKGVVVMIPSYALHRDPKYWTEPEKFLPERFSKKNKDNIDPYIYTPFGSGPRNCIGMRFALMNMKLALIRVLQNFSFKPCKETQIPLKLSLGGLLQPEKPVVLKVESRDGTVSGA

Experiments:
human CYP2D6 = human CYP2D6 (Homo sapiens, UniProt P10635)
human CYP2C19 = human CYP2C19 (Homo sapiens, UniProt P33261); details: mean ± standard deviation from three experiments; words = activity call
human CYP2C9 = human CYP2C9 (Homo sapiens, UniProt P11712); details: mean ± standard deviation from three experiments; words = activity call
human CYP1A2 = human CYP1A2 (Homo sapiens, UniProt P05177); details: read-out: CYP1A2 AC50 (half-maximal activity concentration); mean ± standard deviation from three experiments; words = activity call
CYP3A4 = CYP3A4 (Homo sapiens, UniProt P08684); details: read-out: CYP3A4 AC50 (half-maximal activity concentration); mean ± standard deviation from three experiments; words = activity call

Molecule | IC50 (human CYP2D6; read-out: IC50 CYP2D6 assay, P450-Glo, 30 µM Luciferin-ME EGE, 60 min RT, mean ± SD) [µM] | CYP2C19 AC50 (half-maximal activity concentration) (human CYP2C19) | CYP2C9 AC50 (half-maximal activity concentration) (human CYP2C9) | AC50 (human CYP1A2) [µM] | CYP2D6 AC50 (half-maximal activity concentration) (human CYP2D6; mean ± standard deviation from three experiments, words = activity call) | AC50 (CYP3A4) [µM]
norfentanyl | 4.5 |  |  |  |  | 
Cc1c([N+](=O)[O-])cccc1[N+](=O)[O-] |  | Inconclusive | Inactive | 16.8 | Inactive | 15.4

This is a selection: effects in other tests are not listed, and their absence says nothing.
